In ChEMBL document CHEMBL4831505, “Plant-Derived Cyclotides Modulate κ-Opioid Receptor Signaling” (J Nat Prod, 2021) one finds Emax data, which are given here for one molecule.

Amino acid sequences for entries named in this document (tags omitted). A change or cut given only in a name is not applied to a line headed by its entry.
UniProt P33534: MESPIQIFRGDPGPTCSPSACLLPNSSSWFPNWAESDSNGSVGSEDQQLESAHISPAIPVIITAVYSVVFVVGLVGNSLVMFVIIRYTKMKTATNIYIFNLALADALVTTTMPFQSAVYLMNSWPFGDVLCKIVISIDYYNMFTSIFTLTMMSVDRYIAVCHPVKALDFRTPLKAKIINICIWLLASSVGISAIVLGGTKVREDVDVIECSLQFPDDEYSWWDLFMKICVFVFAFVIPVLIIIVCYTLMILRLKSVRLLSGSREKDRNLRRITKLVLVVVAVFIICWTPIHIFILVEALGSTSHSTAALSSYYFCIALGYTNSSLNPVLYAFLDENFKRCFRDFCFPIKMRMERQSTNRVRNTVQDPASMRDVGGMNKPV

In test [1] the target is Kappa-type opioid receptor (Mus musculus) (UniProt P33534). Briefly: Positive allosteric modulator activity in mouse kappa opioid receptor stably expressed in HEK293 cell membrane assessed as beta-arrestin recruitment by measuring U50,488 Emax using furimazine as a substrate pretreated for 5 mins followed by incubation with U50,488 measured for 35 mins by BRET assay …. The following applies: filed as positive allosteric modulator, time 40.0 min. A general note: Arrestin recruitment assays detect the binding of arrestin to an activated receptor.

Test [2] shares this target. Briefly: Positive allosteric modulator activity in mouse kappa opioid receptor stably expressed in HEK293 cell membrane assessed as inhibition of forskolin induced cAMP production by measuring U50,488 Emax incubated with U50,488 alone measured after 30 mins by HTRF assay relative to control. The following applies: filed as positive allosteric modulator.

As for `CN(C(=O)Cc1ccc(Cl)c(Cl)c1)C1CCCCC1N1CCCC1` (configuration not stated), the Emax in test [1] and in test [2] was 100% throughout.

Usually Emax stands for the size of the effect at its maximum, as opposed to the concentration needed.
